Earlier results as cited in patent US20060025476A1, “Use of methyl pyruvate for the purpose of reducing weight gain in mammals” (priority 2004, published 2006).

System: fetal rat brown adipocyte primary cultures

Structure (SMILES): O=[N+]([O-])c1ccc(-c2nc(-c3ccncc3)c(-c3ccc(F)cc3)[nH]2)cc1 [PD169316]
- ability of Rosi and retinoids for UCP-1 induction: impairs
